{"sequences": {"note": "By UniProt entry, the sequences of proteins in these tests, tags left out.", "UniProt P53041, whole entry": "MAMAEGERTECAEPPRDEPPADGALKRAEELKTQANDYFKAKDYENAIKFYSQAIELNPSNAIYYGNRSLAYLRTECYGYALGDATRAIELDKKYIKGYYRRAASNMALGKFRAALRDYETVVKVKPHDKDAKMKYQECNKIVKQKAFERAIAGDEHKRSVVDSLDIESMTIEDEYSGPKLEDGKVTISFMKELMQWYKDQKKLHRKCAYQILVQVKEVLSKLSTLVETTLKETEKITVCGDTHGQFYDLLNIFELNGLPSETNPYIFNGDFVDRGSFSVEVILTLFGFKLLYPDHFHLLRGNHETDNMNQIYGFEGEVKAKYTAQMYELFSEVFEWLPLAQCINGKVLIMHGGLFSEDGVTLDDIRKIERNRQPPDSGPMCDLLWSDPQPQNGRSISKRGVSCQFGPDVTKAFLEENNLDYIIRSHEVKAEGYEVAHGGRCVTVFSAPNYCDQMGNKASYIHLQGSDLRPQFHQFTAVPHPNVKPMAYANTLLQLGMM"}, "source": "PubChem BioAssay AID1987", "about": "(The Scripps Research Institute Molecular Screening Center, 2009)", "note": "Only a part is listed here, and it is no random draw. Some structures show a salt or complex split into parts, the way the source records it. The source made the active and inactive calls.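 Rule for the calls: active = inhibition above the campaign's mean inhibition across all tested compounds plus 3 SD (cut at about 9.5% in these data); inactive = the rest.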"}
{"molecular_target": "Serine/threonine-protein phosphatase 5 (Homo sapiens) (UniProt P53041)", "assay": "PP5 phosphatase inhibitors, primary screen, biochemical, fluorescence (AID 1987);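 note: 0% = DMSO only and 100% = 100 µM cantharidin control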", "conditions": "purified PP5c, OMFP substrate fluorescence; at 6.7 µM; hits give high values"}
{"smiles": "O=C(OC1CN2CCC1CC2)c1ccc([N+](=O)[O-])cc1", "note": "(stereo unspecified)", "inhibition": "inactive: -0.85%"}
{"smiles": "O=C(OCCN1CCN(CCOCc2ccccc2)CC1)C(O)(c1ccccc1)c1ccccc1", "inhibition": "inactive: 2.37%"}
{"smiles": "COc1ccc2c(c1O)-c1c(O)c(OC)cc3c1[C@H](C2)[N+](C)(C)CC3.O=[N+]([O-])c1cc([N+](=O)[O-])c([O-])c([N+](=O)[O-])c1[O-]", "inhibition": "inactive: 0%"}
{"smiles": "CP(=O)(Nc1ccccc1F)Oc1ccccc1", "note": "(stereo unspecified)", "inhibition": "inactive: 0.06%"}
{"smiles": "CC(C)c1ccc(OP(C)(=O)Nc2ccc(SC(F)(F)F)cc2)cc1", "note": "(stereo unspecified)", "inhibition": "inactive: 5.83%"}
{"smiles": "CCN(CC)CCCOC(=O)C(O)(c1ccccc1)C1CCCCC1", "note": "(stereo unspecified)", "inhibition": "inactive: -0.68%"}
{"smiles": "CP(=O)(Nc1ccccc1)Oc1ccc(F)cc1", "note": "(stereo unspecified)", "inhibition": "inactive: 2.04%"}
{"smiles": "O=[N+]([O-])c1cc([N+](=O)[O-])c(OC2CCCCC2O)c([N+](=O)[O-])c1", "note": "(stereo unspecified)", "inhibition": "inactive: 0.71%"}
{"smiles": "CCCCCOc1ccc(NP(C)(=O)Oc2ccc(Cl)cc2Cl)cc1", "note": "(stereo unspecified)", "inhibition": "inactive: 5.31%"}
{"smiles": "CCOC(=O)c1ccc(NP(C)(=O)Oc2ccc(F)cc2)cc1", "note": "(stereo unspecified)", "inhibition": "inactive: -0.79%"}
{"smiles": "COc1ccc(OP(C)(=O)Nc2ccc(SC(F)(F)F)cc2)cc1", "note": "(stereo unspecified)", "inhibition": "inactive: 2.13%"}
{"smiles": "O=[N+]([O-])c1cc([N+](=O)[O-])c(NCC2CCS(=O)(=O)C2)c([N+](=O)[O-])c1", "note": "(stereo unspecified)", "inhibition": "inactive: -0.44%"}
{"smiles": "COc1ccc(OP(C)(=O)Nc2cccc(Br)c2)cc1", "note": "(stereo unspecified)", "inhibition": "inactive: 1.49%"}
{"smiles": "CN(C)CCOC(=O)C(O)(c1ccccc1)C1CCCCC1", "note": "(stereo unspecified)", "inhibition": "inactive: 0.91%"}
{"smiles": "COc1ccc(NP(C)(=O)Oc2ccccc2OC)cc1", "note": "(stereo unspecified)", "inhibition": "inactive: -0.47%"}
{"smiles": "CP(=O)(Nc1ccc2c(c1)OCCO2)Oc1ccccc1", "note": "(stereo unspecified)", "inhibition": "inactive: -2.4%"}
{"smiles": "Cc1ccccc1NP(C)(=O)Nc1ccccc1C", "inhibition": "inactive: 2.16%"}
{"smiles": "CP(=O)(Nc1ccc(SC(F)(F)F)cc1)Oc1ccc(F)cc1", "note": "(stereo unspecified)", "inhibition": "inactive: 5.12%"}
{"smiles": "CCOP(C)(=S)SCC(=O)NC(C)(CC)C(=O)O", "note": "(stereo unspecified)", "inhibition": "inactive: -1.42%"}
{"smiles": "O=[N+]([O-])c1cc([N+](=O)[O-])c(-c2cnn(-c3ccccc3)c2)c([N+](=O)[O-])c1", "inhibition": "inactive: 2.82%"}
{"smiles": "Cc1nc2ccc3ccccc3c2s1.O=[N+]([O-])c1cc([N+](=O)[O-])c(O)c([N+](=O)[O-])c1", "inhibition": "inactive: 0.83%"}
{"smiles": "O=[N+]([O-])c1cc([N+](=O)[O-])c(-n2nnc3ccccc32)c([N+](=O)[O-])c1", "inhibition": "inactive: -1.49%"}
{"smiles": "CN1CCCCC1COC(=O)C1(O)c2ccccc2CCc2ccccc21", "note": "(stereo unspecified)", "inhibition": "inactive: 1.58%"}
{"smiles": "COc1ccccc1OP(C)(=O)Nc1c(C)cccc1C", "note": "(stereo unspecified)", "inhibition": "inactive: 0.8%"}
{"smiles": "CCCOc1ccc(NP(C)(=O)Oc2ccc(Cl)cc2)cc1", "note": "(stereo unspecified)", "inhibition": "inactive: 2.94%"}
{"smiles": "CP(=O)(Nc1ccc(SC(F)(F)F)cc1)Oc1ccccc1", "note": "(stereo unspecified)", "inhibition": "inactive: 2.89%"}
{"smiles": "CC1=C2N=C(C=C3N=C(C(C)=C4[N-][C@@](C)([C@@H]5N=C1[C@](C)(CCC(=O)NC[C@@H](C)OP(=O)([O-])O[C@H]1[C@@H](O)[C@@H](n6cnc7cc(C)c(C)cc76)O[C@@H]1CO)[C@H]5CC(N)=O)[C@@](C)(CC(N)=O)[C@@H]4CCC(N)=O)[C@@](C)(CC(N)=O)[C@@H]3CCC(N)=O)C(C)(C)[C@@H]2CCC(N)=O.[C-]#N.[Co+3]", "inhibition": "inactive: 1.24%"}
{"smiles": "O=[N+]([O-])c1cc([N+](=O)[O-])c(Nc2nnnn2CCO)c([N+](=O)[O-])c1", "inhibition": "inactive: 2.34%"}
{"smiles": "CCOC(=O)C(CC)C1=NC(C)(C)Cc2ccccc21.O=[N+]([O-])c1cc([N+](=O)[O-])c(O)c([N+](=O)[O-])c1", "note": "(stereo unspecified)", "inhibition": "inactive: -2.13%"}
{"smiles": "CC1=NCCc2c1[nH]c1ccccc21.O=[N+]([O-])c1cc([N+](=O)[O-])c(O)c([N+](=O)[O-])c1", "inhibition": "inactive: -1.8%"}
{"smiles": "O=C(O)c1cccc(Nc2c([N+](=O)[O-])cc([N+](=O)[O-])cc2[N+](=O)[O-])c1", "inhibition": "inactive: 0.06%"}
{"smiles": "Cc1ccc(C)c(NP(C)(=O)Oc2ccccc2)c1", "note": "(stereo unspecified)", "inhibition": "inactive: -1.49%"}
{"smiles": "Cc1cc(C)cc(OP(C)(=O)Nc2ccccn2)c1", "note": "(stereo unspecified)", "inhibition": "inactive: 1.32%"}
{"smiles": "CP(=O)(Nc1cccc(Br)c1)Oc1ccccc1", "note": "(stereo unspecified)", "inhibition": "inactive: -1.67%"}
{"smiles": "COc1ccccc1OP(C)(=O)Nc1cccc(Br)c1", "note": "(stereo unspecified)", "inhibition": "inactive: -1.15%"}
{"smiles": "CCOC(=O)c1ccc(NP(C)(=O)Oc2cc(C)cc(C)c2)cc1", "note": "(stereo unspecified)", "inhibition": "inactive: 3.22%"}
{"smiles": "Cc1cc(C)cc(OP(C)(=O)Nc2ccc(C)cc2C)c1", "note": "(stereo unspecified)", "inhibition": "inactive: 0.54%"}
{"smiles": "CCN(CC)CCCOC(=O)C(O)(c1ccccc1)c1ccccc1", "inhibition": "inactive: 1.23%"}
{"smiles": "COc1ccccc1OP(C)(=O)Nc1ccc(C)cc1", "note": "(stereo unspecified)", "inhibition": "inactive: 0.7%"}
{"smiles": "Cc1ccc(NP(C)(=O)Oc2ccccc2)c(C)c1", "note": "(stereo unspecified)", "inhibition": "inactive: 1.36%"}
{"smiles": "CCOC(=O)c1ccc(NP(C)(=O)Oc2ccccc2)cc1", "note": "(stereo unspecified)", "inhibition": "inactive: 4.1%"}
{"smiles": "Cc1cc(C)cc(OP(C)(N)=O)c1", "note": "(stereo unspecified)", "inhibition": "active: 10.9%"}
{"smiles": "COc1ccccc1OP(C)(=O)Nc1cc(Cl)ccc1C", "note": "(stereo unspecified)", "inhibition": "inactive: 1.75%"}
{"smiles": "COc1ccc(OP(C)(=O)Nc2cccc(F)c2)cc1", "note": "(stereo unspecified)", "inhibition": "inactive: 0.39%"}
{"smiles": "O=[N+]([O-])c1cc([N+](=O)[O-])c(Nc2cccnc2)c([N+](=O)[O-])c1", "inhibition": "inactive: 1.27%"}
{"smiles": "O=[N+]([O-])c1ccc2c(c1)C=Nc1ccccc1O2", "inhibition": "inactive: 0.77%"}
{"smiles": "CC(C)(C)c1ccc(OP(C)(=O)Nc2ccc(SC(F)(F)F)cc2)cc1", "note": "(stereo unspecified)", "inhibition": "inactive: 8.02%"}
{"smiles": "Cc1cccc(C)c1OP(C)(N)=O", "note": "(stereo unspecified)", "inhibition": "inactive: -2.14%"}
{"smiles": "CP(=S)(Nn1cnnc1)Oc1ccccc1", "note": "(stereo unspecified)", "inhibition": "inactive: 0.24%"}
{"smiles": "CP(=O)(Nc1ccccc1Br)Oc1ccccc1", "note": "(stereo unspecified)", "inhibition": "inactive: 1.45%"}
{"smiles": "COc1ccccc1OP(C)(=O)Nc1ccccc1", "note": "(stereo unspecified)", "inhibition": "inactive: 0.47%"}
{"smiles": "O=[N+]([O-])c1cc([N+](=O)[O-])c(O)c([N+](=O)[O-])c1.c1ccc(Oc2ccncc2)cc1", "inhibition": "inactive: 2.7%"}
{"smiles": "CCOC(=O)c1ccc(NP(C)(=O)Oc2ccc(OC)cc2)cc1", "note": "(stereo unspecified)", "inhibition": "inactive: -0.04%"}
{"smiles": "CCOP(C)(=S)SCC(=O)NC(C)C(=O)O", "note": "(stereo unspecified)", "inhibition": "inactive: 0.98%"}
{"smiles": "CP(=O)(Nc1ccccn1)Oc1ccc(Cl)cc1", "note": "(stereo unspecified)", "inhibition": "inactive: 2.69%"}
{"smiles": "CP(=O)(Nc1ccc(SC(F)(F)F)cc1)Oc1ccc(Cl)cc1", "note": "(stereo unspecified)", "inhibition": "inactive: 7.04%"}
{"smiles": "Cc1cccc(C)c1OP(C)(=O)Nc1ccc(SC(F)(F)F)cc1", "note": "(stereo unspecified)", "inhibition": "inactive: 5.95%"}
{"smiles": "CP(=O)(Oc1ccccc1)OC(c1ccccc1)C(F)(F)F", "note": "(stereo unspecified)", "inhibition": "inactive: 0.15%"}
{"smiles": "CP(=O)(NC(=O)Nc1ccccc1)Oc1ccccc1", "note": "(stereo unspecified)", "inhibition": "inactive: 1.96%"}
{"smiles": "CCc1ccc(OP(C)(=O)N2CCN(c3ccc([N+](=O)[O-])cc3)CC2)cc1", "note": "(stereo unspecified)", "inhibition": "inactive: 5.14%"}
{"smiles": "Cc1cc(C)cc(OP(C)(=O)Nc2ccc(SC(F)(F)F)cc2)c1", "note": "(stereo unspecified)", "inhibition": "inactive: 8.27%"}
